Earlier results as cited in US20230144023A1, “USE OF BUTYLPHTHALIDE AND DERIVATIVE THEREOF” (CSPC NBP PHARMACEUTICAL CO., LTD, priority 2020, published 2023).

System: chemotherapy-induced peripheral neuropathy
Conditions: treatment of CIPN; guideline rating; cited from earlier work

In the case of Amitriptyline/nortriptyline, the Safety is listed as “Low”.
